The record followed here is paper PMC3585324, “InterAKTions with FKBPs - Mutational and Pharmacological Exploration” (PLoS ONE, 2013).

The target in this assay is T1, GST_Akt1^S473D (UniProt P31749 1-480, S473D).
T1 construct: Akt1 with the phosphomimetic S473D, called constitutively active; also called purified GST-tagged Akt1S473D; GST-tagged active Akt
T1 sequence (looked up): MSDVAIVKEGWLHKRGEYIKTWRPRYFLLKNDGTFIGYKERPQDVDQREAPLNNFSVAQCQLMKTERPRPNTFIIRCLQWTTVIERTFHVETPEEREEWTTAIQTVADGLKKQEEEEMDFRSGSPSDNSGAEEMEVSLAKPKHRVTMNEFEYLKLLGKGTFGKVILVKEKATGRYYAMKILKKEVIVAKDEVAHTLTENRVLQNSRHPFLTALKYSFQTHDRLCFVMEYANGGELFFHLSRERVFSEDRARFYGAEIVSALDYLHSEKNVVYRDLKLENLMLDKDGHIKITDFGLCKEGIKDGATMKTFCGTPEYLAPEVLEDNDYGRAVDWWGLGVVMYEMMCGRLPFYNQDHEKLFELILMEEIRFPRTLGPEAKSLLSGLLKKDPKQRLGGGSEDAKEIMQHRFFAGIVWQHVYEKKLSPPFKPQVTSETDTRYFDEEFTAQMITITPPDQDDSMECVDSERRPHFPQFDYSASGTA
In words: pull-down; GST pull-down: 15 µM FKBPs or Cyp40 with 22 µM GST_Akt1 S473D or GST_Akt1 S473D_ΔPH on glutathione resin, 3 h, 4 °C, NETN buffer (20 mM Tris-HCl pH 8.0, 100 mM NaCl, 1 mM EDTA, 0.5% igepal); AMP-PNP (5 mM), rapamycin (1 µM) or DMSO where indicated; Western blot. As to conditions: both partners purified. In general terms: A western blot detects proteins with antibodies after separation by electrophoresis.

B1: purified FKBP12.6 (natural protein, UniProt P68106 1-108, looked up)
chain: MGVEIETISPGDGRTFPKKGQTCVVHYTGMLQNGKKFDSSRDRNKPFKFRIGKQEVIKGFEEGAAQMSLGQRAKLTCTPDVAYGATGHPGVIPPNATLIFDVELLNLE
notes: FKBP12.6, His-tagged full length
Consider B1, for which the binding result is recorded as “binds”.
